{"source": "patent US20120052061A1", "about": "“THERAPIES FOR TREATING CANCER USING COMBINATIONS OF COX-2 INHIBITORS AND ANTI-HER2(ERBB2) ANTIBODIES OR COMBINATIONS OF COX-2 INHIBITORS AND HER2(ERBB2) RECEPTOR TYROSINE KINASE INHIBITORS” (Tragara Pharmaceuticals Inc., priority 2007, published 2012)", "key": {"[1]": {"tested_on": "BT474 tumor", "assay": "BT474 model, dose response study of combinations (Example 10)", "type": "in vivo", "settings": "Group 2: trastuzumab 15 mg/kg, ip, biwk×3"}, "[2]": {"tested_on": "HER2-positive breast cancer cell lines (BT474 and SKBR3), sensitive", "settings": "following trastuzumab exposure, sensitive cells; cited from earlier work"}, "[3]": {"tested_on": "HER2-positive breast cancer cell lines (BT474 and SKBR3), trastuzumab resistant", "settings": "following trastuzumab exposure, cited from earlier work"}}}
{"substance": "trastuzumab: recombinant DNA-derived humanized monoclonal antibody (IgG1 kappa) that binds the extracellular domain of HER2", "values": [{"measurement": "Difference from control", "setting": "[1]", "value": 36.6}, {"measurement": "Median Total Time to Endpoint", "setting": "[1]", "value": 64.8, "unit": "days"}, {"measurement": "Regressions: PR (partial regressions)", "setting": "[1]", "value": 0}, {"measurement": "Regressions: TFS (tumor free survivors)", "setting": "[1]", "value": 0}, {"measurement": "G0/G1 arrest", "setting": "[2]", "value": 84, "unit": "%"}, {"measurement": "G0/G1 arrest", "setting": "[3]; resistant cells", "value": 68, "unit": "%"}, {"measurement": "cells in S-phase", "setting": "[3]", "value": 14, "unit": "%"}]}
